Laboratory results as given in patent US6720304B1, “Conjugate comprising a folic acid antagonist and a carrier” (priority 1997, dated 2004).
Entries after “also recorded” stand apart in the source; their conditions may differ.

How the values were obtained:
[1] = tested on: Walker-256 carcinosarcoma; experiment: Tumor therapy in Walker-256 carcinosarcoma-carrying rats; format: in vivo, rat; conditions: number of 5 rats
[2] = tested on: healthy Sprague-Dawley rats; experiment: Toxicity of the conjugates in healthy rats; format: in vivo, rat
Description: For this experiment, the conjugate according to the invention of D-methotrexate and human serum albumin (D-MTX-HSA) from Example 1 was used. Furthermore, the conjugate of methotrexate and human serum albumin (MTX-HSA) known from DE-A-.41 22 210.5 was employed.
Each of 5 healthy Sprague-Dawley rats received D-MTX-HSA or MTX-HSA. In each case, 4 mg conjugate (based on the amount of MTX or D-MTX of the conjugate) per kg body weight was injected at a 2-day interval.

[3] = number of the 5 rats affected, 2 × 4 mg/kg injected at a 2-day interval, after the 3rd day
[4] = on the 4th day, 5 rats, 4 mg/kg at a 2-day interval

## MTX-HSA
[1]; 3 × 2 mg/kg (based on MTX) at 2-day intervals, start on 6th day after tumor transplantation
  remission: 3
[1]; 3 × 2 mg/kg at 2-day intervals
  SE: side-effects: 3
  death: death by tumor relapse: 2
  relapse: 2
[2]; healthy rats, 4 mg/kg at a 2-day interval, 4 mg/kg
  side-effects (in words): strong side-effects from the 3rd day; also recorded: considerable side-effects already appeared
[2]; number of the 5 rats affected, 2 × 4 mg/kg (based on MTX or D-MTX) injected at a 2-day interval, after the 3rd day
  MI: muscus membrane inflammation: 5
[2]; [3]
  DI: diarrhea: 5
  SC: shaggy coat: 5
  WL: weight loss: 5
[2]; number of the 5 rats, 2 × 4 mg/kg injected at a 2-day interval, after the 3rd day
  death: 5
[2]; [4]
  rats found dead in their cage: 2 rats
  rats that had to be euthanized because of very strong side-effects: 3 rats
